In PubChem BioAssay (NCI):
Some of these compounds have results that are not shown, active ones among them.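 Assay format: 96-well plates, 48-hour exposure. Definition used: TGI = concentration required for complete inhibition of growth.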

Experiments:
Assay in all cases: NCI anticancer screen, dose series, 48 h
UO-31 renal = system: UO-31 renal
A549 NSCLC = system: A549 NSCLC
RPMI-8226 leukemia = system: RPMI-8226 leukemia
BT-549 breast = system: BT-549 breast
EKVX NSCLC = system: EKVX NSCLC
OVCAR-4 ovarian = system: OVCAR-4 ovarian
NCI-H226 lung = system: NCI-H226 lung
NCI-H522 lung = system: NCI-H522 lung
IGROV1 ovarian = system: IGROV1 ovarian
HCC-2998 colon = system: HCC-2998 colon
UACC-62 melanoma = system: UACC-62 melanoma
K-562 leukemia = system: K-562 leukemia
HCT-15 colon = system: HCT-15 colon
SNB-19 CNS = system: SNB-19 CNS
SK-MEL-2 melanoma = system: SK-MEL-2 melanoma
NCI/ADR-RES ovarian = system: NCI/ADR-RES ovarian
COLO 205 colon = system: COLO 205 colon
HT29 colon = system: HT29 colon
HOP-62 NSCLC = system: HOP-62 NSCLC
NCI-H23 lung = system: NCI-H23 lung
A498 renal = system: A498 renal
CCRF-CEM leukemia = system: CCRF-CEM leukemia
M14 melanoma = system: M14 melanoma
LOX IMVI melanoma = system: LOX IMVI melanoma
SK-MEL-28 melanoma = system: SK-MEL-28 melanoma
SW-620 colon = system: SW-620 colon
UACC-257 melanoma = system: UACC-257 melanoma
NCI-H322M lung = system: NCI-H322M lung
T-47D breast = system: T-47D breast
SF-268 CNS = system: SF-268 CNS
SNB-75 CNS = system: SNB-75 CNS
MDA-MB-435 = system: MDA-MB-435
HS 578T breast = system: HS 578T breast
MALME-3M melanoma = system: MALME-3M melanoma
SK-MEL-5 melanoma = system: SK-MEL-5 melanoma
SK-OV-3 ovarian = system: SK-OV-3 ovarian
ACHN renal = system: ACHN renal
786-0 renal = system: 786-0 renal
DU-145 prostate = system: DU-145 prostate
SR leukemia = system: SR leukemia
SN12C renal = system: SN12C renal
NCI-H460 lung = system: NCI-H460 lung
U251 CNS = system: U251 CNS
MDA-N = system: MDA-N
RXF 393 renal = system: RXF 393 renal
SF-295 CNS = system: SF-295 CNS
MOLT-4 leukemia = system: MOLT-4 leukemia
KM12 colon = system: KM12 colon
MCF7 breast = system: MCF7 breast
TK-10 renal = system: TK-10 renal
PC-3 prostate = system: PC-3 prostate
OVCAR-5 ovarian = system: OVCAR-5 ovarian
HL-60(TB) leukemia = system: HL-60(TB) leukemia
OVCAR-3 ovarian = system: OVCAR-3 ovarian
HCT-116 colon = system: HCT-116 colon
OVCAR-8 ovarian = system: OVCAR-8 ovarian

## CC#CC(O)(C(=O)OC1CCN(C)CC1)c1ccccn1 (stereo unspecified)
UO-31 renal
  TGI: > 100 µM
A549 NSCLC
  TGI: > 100 µM
RPMI-8226 leukemia
  TGI: > 100 µM
BT-549 breast
  TGI: > 100 µM
EKVX NSCLC
  TGI: 78.3 µM
OVCAR-4 ovarian
  TGI: > 100 µM
NCI-H226 lung
  TGI: > 100 µM
NCI-H522 lung
  TGI: > 100 µM
IGROV1 ovarian
  TGI: > 100 µM
HCC-2998 colon
  TGI: > 100 µM
UACC-62 melanoma
  TGI: > 100 µM
K-562 leukemia
  TGI: > 100 µM
HCT-15 colon
  TGI: > 100 µM
SNB-19 CNS
  TGI: > 100 µM
SK-MEL-2 melanoma
  TGI: > 100 µM
NCI/ADR-RES ovarian
  TGI: > 100 µM
COLO 205 colon
  TGI: > 100 µM
HT29 colon
  TGI: > 100 µM
HOP-62 NSCLC
  TGI: > 100 µM
NCI-H23 lung
  TGI: > 100 µM
A498 renal
  TGI: > 100 µM
CCRF-CEM leukemia
  TGI: > 100 µM
M14 melanoma
  TGI: > 100 µM
LOX IMVI melanoma
  TGI: > 100 µM
SK-MEL-28 melanoma
  TGI: > 100 µM
SW-620 colon
  TGI: > 100 µM
UACC-257 melanoma
  TGI: > 100 µM
NCI-H322M lung
  TGI: > 100 µM
T-47D breast
  TGI: > 100 µM
SF-268 CNS
  TGI: > 100 µM
SNB-75 CNS
  TGI: > 100 µM
MDA-MB-435
  TGI: 45.4 µM
HS 578T breast
  TGI: > 100 µM
MALME-3M melanoma
  TGI: > 100 µM
SK-MEL-5 melanoma
  TGI: > 100 µM
SK-OV-3 ovarian
  TGI: > 100 µM
ACHN renal
  TGI: > 100 µM
786-0 renal
  TGI: > 100 µM
DU-145 prostate
  TGI: > 100 µM
SR leukemia
  TGI: > 100 µM
SN12C renal
  TGI: 61.5 µM
NCI-H460 lung
  TGI: > 100 µM
U251 CNS
  TGI: > 100 µM
MDA-N
  TGI: > 100 µM
RXF 393 renal
  TGI: > 100 µM
SF-295 CNS
  TGI: > 100 µM
MOLT-4 leukemia
  TGI: > 100 µM
KM12 colon
  TGI: > 100 µM
MCF7 breast
  TGI: 98.5 µM
TK-10 renal
  TGI: > 100 µM
PC-3 prostate
  TGI: > 100 µM
OVCAR-5 ovarian
  TGI: > 100 µM
HL-60(TB) leukemia
  TGI: > 100 µM
OVCAR-3 ovarian
  TGI: > 100 µM
HCT-116 colon
  TGI: > 100 µM
OVCAR-8 ovarian
  TGI: > 100 µM
